## scFv variants of Ab-14 (heavy chain) against a SARS-CoV-2 spike peptide

Antigen: PDVDLGDISGINAS, a 14-residue peptide of the SARS-CoV-2 spike HR2 region.

The variants keep the light chain, the linker and the frameworks of Ab-14 (scFv order VH, the linker GGGGSGGGGSGGGGS, VL).
VH: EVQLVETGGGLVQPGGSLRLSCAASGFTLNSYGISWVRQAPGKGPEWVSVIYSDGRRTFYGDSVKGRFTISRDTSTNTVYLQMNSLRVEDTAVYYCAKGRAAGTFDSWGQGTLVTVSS
VL: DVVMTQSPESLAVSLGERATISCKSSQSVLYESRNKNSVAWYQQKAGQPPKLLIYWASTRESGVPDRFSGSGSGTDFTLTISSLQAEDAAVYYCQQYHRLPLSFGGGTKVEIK

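The parent was found by panning a naive human phage display library on the peptide. In library AAYL49, one, two or three CDR residues were substituted; doubles and triples were drawn at random. In AlphaSeq, yeast of one mating type display the scFv and yeast of the other type display the target. Pairs that bind mate more often; barcode pairs of the diploids are counted by sequencing. Read counts were normalised to the haploid input and turned into Kd by a linear fit to BCL2-family pairs of known affinity, for each replicate. Each pool was mated in three replicate cultures.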

Positions count from residue 1 of the parent VH; G61S puts S in place of G.
This list gathers variants with a substitution at V64 (VH, numbered from residue 1).
Kd is apparent (estimated from mating counts) and averaged on the log scale over replicates with a signal. Smaller is tighter.
Where no diploid with the target was found in any replicate, the entry reads "no signal": below detection, most likely a poor binder, though not proof of it.
As a blank, each scFv also met three strains without target: over library AAYL49, 15% of these pairings were detected, typically at 11 µM and seldom below 680 nM.

For G61S V64Y F105T, the assay gave no signal (0 of 3 replicates). Variant F59M V64F gave 6.7 nM (3 of 3 replicates). Variant I51V G55H V64D gave no signal (0 of 3 replicates). For L29M V64S D106N, the assay gave 18 µM (2 of 3 replicates). For D54F G61N V64P, the assay gave no signal (0 of 3 replicates). With T28K V64I T104D the result was 950 nM (3 of 3 replicates).

With R57I V64W R100T the result was no signal (0 of 3 replicates). For S31N T58E V64R, the assay gave 25 µM (2 of 3 replicates). With L29Q S53C V64C the result was no signal (0 of 3 replicates). For V64L A102E S107Y, the assay gave 3.6 µM (1 of 3 replicates). Variant Y52N V64H G99K showed no signal (0 of 3 replicates). Variant G26W V64Y F105L showed 1.0 µM (1 of 3 replicates).

With V64K A102V D106G the result was 33 µM (1 of 3 replicates). Variant G33C V64K R100C showed no signal (0 of 3 replicates). Variant F27R V64Y K65A showed no signal (0 of 3 replicates). Variant V64C G99P A102V showed 7.7 µM (1 of 3 replicates). Variant V64Q G103F S107K showed 47 µM (1 of 3 replicates). For F27G G61E V64M, the assay gave no signal (0 of 3 replicates).

Variant Y32D V64G A102P showed no signal (0 of 3 replicates). Variant I51E V64D S107T showed no signal (0 of 3 replicates). Variant D62H V64E T104G showed 27 µM (1 of 3 replicates). Variant T28M Y52L V64G showed no signal (0 of 3 replicates). With V64W the result was 4.7 µM (2 of 3 replicates). For S31C G33I V64L, the assay gave 5.9 µM (1 of 3 replicates).

With V64H A102M S107N the result was 10 µM (1 of 3 replicates). Variant D54N V64T G103F showed 19 µM (1 of 3 replicates). With G61W V64Y G103F the result was 72 µM (1 of 3 replicates). For L29Q I51Q V64F, the assay gave 8.6 µM (1 of 3 replicates). Variant R56T D62H V64Y gave 1.2 µM (2 of 3 replicates). Variant R56M V64P A101S gave 740 nM (1 of 3 replicates).

Variant D54K V64C S107H showed no signal (0 of 3 replicates). Variant Y32P V64S G99Q gave no signal (0 of 3 replicates). For N30R R57F V64P, the assay gave no signal (0 of 3 replicates). For I34D V64H G103C, the assay gave no signal (0 of 3 replicates). Variant S53P V64T A101H showed no signal (0 of 3 replicates). For Y52M S63K V64G, the assay gave no signal (0 of 3 replicates).

Variant S53I R57Q V64N gave 19 µM (3 of 3 replicates). For Y32C G33H V64C, the assay gave 360 µM (3 of 3 replicates). Variant Y52C G61C V64T showed 51 µM (2 of 3 replicates). With S31F V64P A102V the result was 1.1 µM (1 of 3 replicates). With L29N G55N V64A the result was 230 nM (1 of 3 replicates). For I51M D62E V64F, the assay gave 130 nM (3 of 3 replicates).

Variant V64P D106E gave no signal (0 of 3 replicates). Variant R57W T58W V64D gave 20 µM (3 of 3 replicates). Variant V50R V64T T104C showed 81 µM (2 of 3 replicates). For V64E G103E D106V, the assay gave 51 µM (1 of 3 replicates).

The last 2 entries again:

changes,Kd (apparent),replicates with signal
V50R V64T T104C,81 µM,2 of 3
V64E G103E D106V,51 µM,1 of 3

In this assay the parent's reference entry averaged 4.4 nM; its copy inside this library read 13 µM (one replicate of three).

Values reported by Engelhart et al. 2022, doi:10.1038/s41597-022-01779-4 (FLAb copy).